# Yeast mating assay 1: variants of the scFv Ab-14

Binding partner: SARS-CoV-2 spike HR2 peptide, sequence PDVDLGDISGINAS.

Each scFv is VH, the linker GGGGSGGGGSGGGGS, VL, as in the parent Ab-14, and differs from it in the CDRs of the heavy chain only.
VH: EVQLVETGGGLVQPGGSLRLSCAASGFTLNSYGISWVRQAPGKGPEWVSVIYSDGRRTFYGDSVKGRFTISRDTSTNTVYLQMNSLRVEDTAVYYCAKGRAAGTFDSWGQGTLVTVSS
VL: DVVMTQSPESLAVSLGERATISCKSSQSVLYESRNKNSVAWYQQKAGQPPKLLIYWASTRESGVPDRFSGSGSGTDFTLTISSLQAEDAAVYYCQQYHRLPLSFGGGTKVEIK

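Phage display of a naive human antibody library on the peptide gave the parent. The library (AAYL49) carries one to three amino acid substitutions per variant, with no insertions or deletions. The assay is AlphaSeq: two haploid yeast populations carry antibody and antigen on their surface. The frequency of each diploid, read from paired DNA barcodes, reflects how well the two displayed proteins bind. Scores were corrected for input abundance and mapped to Kd with protein pairs of known affinity run in the same pool. The assay was run in three technical replicates.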

Variants are written as CDR1, CDR2 and CDR3 of the heavy chain (limits as in the source). Parent: GFTLNSYGIS, VIYSDGRRTFYGDSVK, GRAAGTFDS.
Numbers give log10(Kd / nM), so 0 is 1 nM and 3 is 1 µM. Smaller is tighter.
"ND" marks a missing value. The strain was present, yet no cells mated with the target were sequenced in that replicate, which points to weak or no binding.

CDR-H1 | CDR-H2 | CDR-H3 | log10 Kd (nM) by replicate | empty controls
GFTLNSYGIS | VIYSDGRRTFYGDSVK | KRAANTFDG | ND ND ND | 1 of 9 (2.96)
GFTLNSYIIQ | VIYSDGMRTFYGDSVK | GRAAGTFDS | ND ND ND | 1 of 9 (3.20)
GFTLNSYGIS | VICSIGRRTFYGDSVW | GRAAGTFDS | ND ND ND | 2 of 9 (3.56)
GFTTNSYGIS | VIYSDNRRTFYGDSVK | GRAAGTFDC | ND 3.93 4.93 | 3 of 9 (4.60)
GFTLNSYGIS | VIYKVGRRTFYIDSVK | GRAAGTFDS | ND ND ND | 5 of 9 (4.75)
GFTLNSYGID | VINSDGRRTFYGDSVK | GRAAGTFDG | ND ND ND | 0 of 9
GFTLLSYGIS | VIYDDGRRTFYGDSVK | SRAAGTFDS | 3.39 ND ND | 1 of 9 (3.14)
GFTLWSYGIS | VIYSDGRRTFYGSKVK | GRAAGTFDS | 1.05 1.85 1.65 | 0 of 9
GFTLNSYGIS | VIYSDSRRTFYGDSVK | RRAAHTFDS | ND ND ND | 2 of 9 (4.91)
GFTLNSYGIS | PIYSDGRRTFYGDSVI | YRAAGTFDS | ND 3.18 ND | 0 of 9
GFTLNSYGIS | VIYSDGRRTFYGDSVK | GSAAWTADS | ND 5.50 ND | 5 of 9 (4.41)
GFTVESYGIS | VIYSDGRRTFYGDWVK | GRAAGTFDS | 3.20 2.48 2.86 | 2 of 9 (4.77)
GFTLNSYGIS | VYYSDGRRTFYGYSVK | GRAAGTFDN | ND ND 4.24 | 3 of 9 (3.71)
GFFLNSQGIS | VIYSDGRRTFYGDSVK | GDAAGTFDS | 2.32 2.53 2.21 | 1 of 9 (3.72)
GFTLNSPGPS | VIYSDGRRTFYGDSVK | GRAVGTFDS | ND 3.99 ND | 3 of 9 (4.57)
GFTLNSYGYS | VIYSDGRRTFYGDSVK | GRAAHTFDR | 5.26 4.15 4.12 | 7 of 9 (5.13)
VFTLNSYGIS | VIYSDGRRTSYGISVK | GRAAGTFDS | ND 5.05 4.05 | 2 of 9 (5.08)
GFKLNSYMIS | VIYSDGRRTFYGDSVK | GRQAGTFDS | ND ND ND | 1 of 9 (2.92)
GFTLNSYGIS | VIYSDGRRTFYGDKVK | MRAAGTKDS | ND ND 5.70 | 1 of 9 (4.58)
GFTLNDYGIS | VIYSDGRRTFYGDAVK | GRAAGTFSS | 0.43 0.76 0.54 | 2 of 9 (3.53)
GFTWNSPGIS | VIYSDQRRTFYGDSVK | GRAAGTFDS | ND ND ND | 2 of 9 (2.81)
PFTLNSYGIS | VIYSDGRRTFYGHSVK | IRAAGTFDS | ND ND ND | 0 of 9
GSTLNSYGHS | VIYSDGRRTFCGDSVK | GRAAGTFDS | ND ND ND | 2 of 9 (4.41)
GFTLNSYGIS | VIYSDGRRTFYGDSWK | GRAAGTFDS | 4.00 ND 3.35 | 1 of 9 (5.11)
GFTLNSYGIH | VIHSDGRRTFYGDSVT | GRAAGTFDS | ND ND ND | 0 of 9
GFTLNSYGIS | VIYSDGRRTCYGDSKK | GRAHGTFDS | ND ND ND | 0 of 9
GFTLISYGIS | VIYSDGRRTFYSDSVK | RRAAGTFDS | ND 5.06 ND | 2 of 9 (4.60)
GFTPLSYGES | VIYSDGRRTFYGDSVK | GRAAGTFDS | ND ND ND | 0 of 9
GFTLNSYGIS | VIYSDGRRTFYGDSVK | QRAAGCFDS | ND ND ND | 1 of 9 (3.04)
GFTLNNWGIS | VIYSDGRRTFYGDSVK | GRACGTFDS | 5.72 3.78 4.99 | 3 of 9 (3.77)
GFTLNSYGIS | VIYSDGRRTFDGDHVK | GRAAGTFES | ND ND 5.59 | 2 of 9 (4.55)
GFTLNSLGIS | QIYSDGRRGFYGDSVK | GRAAGTFDS | ND ND ND | 4 of 9 (3.70)
GFTLNSYGIS | VISSDGRRTFYGDSQK | GRAAVTFDS | 1.60 1.95 1.64 | 3 of 9 (4.75)
GFTLNSYGIS | VIYSDGRRTFYGCKVM | GRAAGTFDS | ND ND ND | 0 of 9
GFTLSSFGNS | VIYSDGRRTFYGDSVK | GRAAGTFDS | ND ND ND | 0 of 9
GFTLNSYGIS | VIYSDGRRTFYGRSVK | GRAAPTFDK | ND ND ND | 1 of 9 (3.36)
GFTLNSKGIS | VIYSDGRRTFYGDSVK | GRAASTEDS | ND ND 3.60 | 3 of 9 (4.14)
GFTLNSYGIS | VIYSKGRPTFYGDSVK | GRAAGTTDS | ND ND ND | 0 of 9
GFTLPSYGIS | VIYSDGRLTFYGDSVI | GRAAGTFDS | ND ND ND | 0 of 9
GFTLNSYGIS | VIYSDGRRMRYGDRVK | GRAAGTFDS | 4.25 ND ND | 2 of 9 (3.94)
PFTLNSYGIS | VIYSDGRRTFYGDSVK | GRAAGTFPS | 1.93 2.11 2.27 | 1 of 9 (2.51)

Again, the first 6 entries without any signal:

CDR-H1 | CDR-H2 | CDR-H3 | log10 Kd (nM) by replicate | empty controls
GFTLNSYGIS | VIYSDGRRTFYGDSVK | KRAANTFDG | ND ND ND | 1 of 9 (2.96)
GFTLNSYIIQ | VIYSDGMRTFYGDSVK | GRAAGTFDS | ND ND ND | 1 of 9 (3.20)
GFTLNSYGIS | VICSIGRRTFYGDSVW | GRAAGTFDS | ND ND ND | 2 of 9 (3.56)
GFTLNSYGIS | VIYKVGRRTFYIDSVK | GRAAGTFDS | ND ND ND | 5 of 9 (4.75)
GFTLNSYGID | VINSDGRRTFYGDSVK | GRAAGTFDG | ND ND ND | 0 of 9
GFTLNSYGIS | VIYSDSRRTFYGDSVK | RRAAHTFDS | ND ND ND | 2 of 9 (4.91)

For reference, the parent read 0.65 as the reference entry and 4.11 (one replicate of three) as a member of this library.
Background: pairings of library AAYL49 with three empty control strains gave a value in 15% of cases (median 4.06, 5th percentile 2.83). Values in that range, when seen in few replicates, are hard to tell from nonspecific mating. For each scFv, signals with the empty controls are counted beside the result, with their mean in brackets.

Data: MIT Lincoln Laboratory AlphaSeq set, Engelhart et al. 2022, doi:10.1038/s41597-022-01779-4, as distributed in FLAb.